Experimental data: published antibiotic growth screens (doi:10.1038/s41589-023-01349-8)
Some of the results follow.

The molecules below were run on A. baumannii ATCC 17978 (assay: relative growth (fraction of control); higher = less inhibition). Conditions: 50 µM.
Work on `CCCCc1oc2ccccc2c1C(=O)c1cc(I)c(OCCN(CC)CC)c(I)c1.Cl` yielded a relative growth of 1.1. For `Cc1ncc([N+](=O)[O-])n1CC(C)O` (stereo not given), the relative growth was 0.999. `CCn1c(=S)[nH]c2ccccc21` gave a relative growth of 1.01. `COc1ccc(S(=O)(=O)N2C[C@@H](O)COC[C@@H]3O[C@@H](CC(=O)NCc4ccc(Cl)c(Cl)c4)CC[C@H]32)cc1` showed a relative growth of 1.03. `COC(=O)c1c(C)cc(OC(=O)c2c(C)cc(O)c(C=O)c2O)c(C)c1O` showed a relative growth of 0.961. For `C[C@H]1CN([C@@H](C)CO)S(=O)(=O)c2ccc(C#CC3(O)CCCC3)cc2O[C@@H]1CN(C)C(=O)c1ccccc1`, the relative growth was 0.909. `O=C(C[C@@H]1C=C[C@H](NC(=O)c2ccncc2)[C@@H](CO)O1)NCc1ccncn1` gave a relative growth of 1.18. With `CS(=O)(=O)Cc1ccc(C(=O)O)cc1` the relative growth was 0.955. Work on `CC1=C(/C=C/C(C)=C/C=C/C(C)=C/CO)C(C)(C)CCC1` yielded a relative growth of 1.17. `Cc1ccc(Sc2c(-c3ccccc3)nc3sccn23)cc1` was tested, and the relative growth was 1.18. `CCNC(=O)C[C@@H]1C=C[C@@H](NC(=O)C2CC2)[C@@H](CO)O1` gave a relative growth of 1.25. Molecule `CCCC(=O)Nc1ccc2c(c1)OC[C@@H](C)N(S(=O)(=O)c1cn(C)cn1)C[C@H](C)[C@H](OC)CN(C)C2=O` has a relative growth of 0.996. `CC1(C)CCC[C@@]2(C)C1CC[C@@]1(C)OCC[C@@H]12` (stereo not given in full) was tested, and the relative growth was 1.02. `CO[C@H]1CN(C)C(=O)c2cc(NC(=O)C3CC3)ccc2OC[C@@H](C)N(C(=O)C2CCOCC2)C[C@@H]1C` gave a relative growth of 1.08. `COc1ccc2cc([C@H](C)C(=O)O)ccc2c1` was tested, and the relative growth was 1.02. Molecule `O=C(O)[C@H]1CCCNC1` has a relative growth of 0.984. In the case of `CC(C)NC(=O)N(C)C[C@@H]1Oc2cc(-c3ccccc3F)ccc2S(=O)(=O)N([C@@H](C)CO)C[C@H]1C`, the relative growth is reported as 0.909. Work on `CN(C)CCCNC(=O)C[C@@H]1C=C[C@@H](NS(=O)(=O)c2ccccc2)[C@@H](CO)O1` yielded a relative growth of 1.02. In the case of `CN(C)CCCNC(=O)C[C@@H]1C=C[C@@H](NC(=O)Cc2cccnc2)[C@H](CO)O1`, the relative growth is reported as 0.95. `O=C(O)c1ccc2ccccc2c1` was tested, and the relative growth was 0.931. `Nc1cc(N2CCCCC2)nc(N)[n+]1[O-]` was tested, and the relative growth was 1.07. `NCCn1nc([C@H]2CCN(C(=O)c3csc4c3CCCC4)C2)c2nccnc21` was tested, and the relative growth was 0.939. Work on `O=C(/C=C/c1ccccc1)c1ccc(O[C@@H]2O[C@H](CO)[C@@H](O)[C@H](O)[C@H]2O)cc1O` yielded a relative growth of 0.992. `COc1ccc(S(=O)(=O)N(C)C[C@H]2Oc3c(NC(=O)Nc4cccc5ccccc45)cccc3C(=O)N([C@@H](C)CO)C[C@@H]2C)cc1` gave a relative growth of 0.932. In the case of `CN(C)C(=O)C[C@@H]1CC[C@@H](NC(=O)C2CC2)[C@@H](CO)O1`, the relative growth is reported as 1.06. `O=C(O)c1cc(=O)[nH]c(=O)[nH]1` gave a relative growth of 0.877. `O.OC[C@@H](O)C(O[C@@H]1O[C@H](CO)[C@H](O)[C@H](O)[C@H]1O)[C@H](O)[C@@H](O)CO` (stereo not given in full) was tested, and the relative growth was 1.04. Work on `CN(C)[C@@H](CCOc1cccc2ccccc12)c1ccccc1.Cl` yielded a relative growth of 0.513. For `CC[C@@H](C)c1ccc(NC(=O)c2ccc(N(CC)CC)cc2)cc1`, the relative growth was 1.21. For `C=CCOC(=O)[C@H]1[C@@H]2C(=O)O[C@@H](c3ccccc3)[C@@H](c3ccccc3)N2[C@@H](c2ccc(OCCOC(=O)[C@H]3C[C@H]4C(=O)N[C@@H](CCCCNC(C)=O)C(=O)N4[C@H]3c3ccc(O)cc3)cc2)[C@]12C(=O)Nc1ccccc12`, the relative growth was 0.879. In the case of `O=S(=O)(c1ccc(-n2cnnn2)cc1)N1CCNCC1`, the relative growth is reported as 1.11. `CC(=O)NCCCCCC(=O)O` was tested, and the relative growth was 0.968. `CN(C)c1ncnc2c1ncn2[C@H]1O[C@@H](CO)[C@@H](N)[C@@H]1O` was tested, and the relative growth was 0.99. `COCC#Cc1ccc2c(c1)O[C@@H](CN(C)C(=O)COC)[C@H](C)CN([C@@H](C)CO)S2(=O)=O` showed a relative growth of 0.905. With `CCNC(=O)C[C@@H]1C=C[C@H](NC(=O)C2CCOCC2)[C@@H](CO)O1` the relative growth was 0.89. For `CC(C)=CCOc1cc(C)cc2oc(=O)cc(-c3ccccc3)c12`, the relative growth was 1.11. For `COc1ccc(NC(=O)N2C[C@@H](O)COC[C@H]3O[C@H](CC(=O)NC4Cc5ccccc5C4)CC[C@@H]32)cc1`, the relative growth was 0.941. For `O=C(C[C@@H]1C[C@@H]2c3cc(NC(=O)Cc4ccncc4)ccc3O[C@@H]2[C@H](CO)O1)NCc1ccc2c(c1)OCO2`, the relative growth was 0.965. Work on `CS(=O)(=O)c1ccc([C@H](O)[C@H](CF)NC(=O)C(Cl)Cl)cc1` yielded a relative growth of 0.776. `COc1ccccc1C#Cc1ccc2c(c1)O[C@H](CN(C)Cc1cncnc1)[C@@H](C)CN([C@H](C)CO)S2(=O)=O` gave a relative growth of 0.701. `COc1ccc([Si](C)(C)[C@@H]2[C@@H](CC(=O)N3CCC[C@H]3CO)O[C@]3(C(=O)N(Cc4cccc(N5C(=O)c6cccc7cccc5c67)c4)c4ccccc43)[C@H]2C)cc1` was tested, and the relative growth was 1. `COc1ccc([C@@H](C)C(=O)c2ccc(O)cc2O)cc1` gave a relative growth of 0.94. For `COc1ccc(S(=O)(=O)N[C@H]2C=C[C@H](CC(=O)N3CCC(Cc4ccccc4)CC3)O[C@H]2CO)cc1`, the relative growth was 0.758. In the case of `CCNC(=O)C[C@H]1C=C[C@@H](NC(=O)C2CCOCC2)[C@H](CO)O1`, the relative growth is reported as 0.827. In the case of `O=C(NCc1nc2ccccc2[nH]1)C1=C[C@@H](c2ccc(Br)cc2)C[C@@H](OCc2ccc(CO)cc2)O1`, the relative growth is reported as 0.942. For `CC(=O)c1ccc[nH]1`, the relative growth was 0.955. `O=S(=O)([O-])CCSSCCS(=O)(=O)[O-].[Na+].[Na+]` was tested, and the relative growth was 1.04. For `CC(C)(C)CC(C)(C)c1cc(Cc2cc(C(C)(C)CC(C)(C)C)cc(-n3nc4ccccc4n3)c2O)c(O)c(-n2nc3ccccc3n2)c1`, the relative growth was 0.87. Work on `COc1cc2nc(N(C)CCCNC(=O)C3CCCO3)nc(N)c2cc1OC.Cl` (stereo not given) yielded a relative growth of 0.871. For `NC(=O)c1cnccn1`, the relative growth was 1.09. With `O=C(C[C@H]1CC[C@@H](NC(=O)CN2CCOCC2)[C@H](CO)O1)NC1CCC1` the relative growth was 0.964. Work on `COc1cccc(S(=O)(=O)N(C)C[C@@H]2Oc3cc(C4=CCCC4)ccc3S(=O)(=O)N([C@H](C)CO)C[C@@H]2C)c1` yielded a relative growth of 1.08. `CN(C)c1cnccn1.O=S(=O)(O)O` gave a relative growth of 1.02. Work on `Cc1nc2ccccn2c(=O)c1CCN1CCC(C(=O)c2ccc(F)cc2)CC1` yielded a relative growth of 0.947. Work on `CSc1nc2cc(Cl)c(Oc3cccc(Cl)c3Cl)cc2[nH]1` yielded a relative growth of 0.894. `O=C(CCNNC(=O)c1ccncc1)NCc1ccccc1` showed a relative growth of 1.07. Work on `COCC(=O)N1C[C@H](C)[C@H](OC)CN(C)C(=O)c2ccc(NC(=O)c3cc(C)on3)cc2OC[C@@H]1C` yielded a relative growth of 1.02. Work on `C[C@H]1CN([C@@H](C)CO)S(=O)(=O)c2ccc(C3=CCCCC3)cc2O[C@@H]1CN(C)C(=O)C1CCOCC1` yielded a relative growth of 0.94. Molecule `O=C(C[C@@H]1CC[C@@H](NC(=O)CN2CCOCC2)[C@H](CO)O1)NC1CCC1` has a relative growth of 0.961. For `O=C(CN1CCOCC1)N[C@H]1CC[C@@H](CCn2cc(C3CC3)nn2)O[C@@H]1CO`, the relative growth was 1.04. `OCCN1CCN(c2ncnc3c2ncn3[C@H]2CN(Cc3cccc(C(F)(F)F)c3)C[C@@H](CO)O2)CC1` gave a relative growth of 0.918. `CN(C)CCCNC(=O)C[C@H]1C=C[C@@H](NC(=O)Cc2cccnc2)[C@H](CO)O1` showed a relative growth of 0.991. `C/C=C/c1ccc(OC)cc1` showed a relative growth of 1.18. `CN(C)CCCCNC(=O)[C@H]1C[C@H]2C(=O)N[C@@H](CCCC[N+](C)(C)C)C(=O)N2[C@H]1c1ccc(O)cc1` was tested, and the relative growth was 1. `COc1ccccc1C#Cc1ccc2c(c1)O[C@H](CN(C)Cc1cccnc1)[C@@H](C)CN([C@H](C)CO)S2(=O)=O` was tested, and the relative growth was 1.02. In the case of `O[C@H]1[C@H](O)[C@@H](O)[C@H](O)[C@@H](O)[C@H]1O`, the relative growth is reported as 0.98. Molecule `CCN1CCN(C(=O)NC(C(=O)NC2C(=O)N3C(C(=O)O)=C(CSc4nnnn4C)CSC23)c2ccc(O)cc2)C(=O)C1=O` (stereo not given) has a relative growth of 0.164. With `N=C(N)NCCCCN.O=S(=O)(O)O` the relative growth was 1.01. Molecule `Cc1cc(C)n(C(N)=S)n1` has a relative growth of 0.965. For `COc1ccccc1S(=O)(=O)N[C@@H]1C=C[C@H](CC(=O)N2CCN(C)CC2)O[C@@H]1CO`, the relative growth was 1.24. Work on `Cc1ccc(Cl)c(Nc2ccccc2C(=O)[O-])c1Cl.[Na+]` yielded a relative growth of 0.798. `CCCCc1ccc(CC(=O)O)cc1` gave a relative growth of 1.03. `CN(C)CCCNC(=O)C[C@H]1CC[C@H](NS(=O)(=O)c2ccccc2)[C@H](CO)O1` gave a relative growth of 1.01. Molecule `CC(C)(C)OC(=O)C[C@@H]1CC=CC[C@H](CC(=O)NCCO)C(=O)NCCOC1=O` has a relative growth of 1.07. In the case of `CC(C)NC(=O)N(C)C[C@H]1Oc2ncc(-c3ccc(C(=O)N(C)C)cc3)cc2C(=O)N([C@H](C)CO)C[C@@H]1C`, the relative growth is reported as 1.03. In the case of `CO[C@H]1CN(C)C(=O)c2cc(NS(C)(=O)=O)ccc2OC[C@@H](C)N(C(=O)c2ccc3c(c2)OCO3)C[C@H]1C`, the relative growth is reported as 1.08. Molecule `CC(=O)N1CCN(CC(N)=S)CC1` has a relative growth of 1.06. `COc1ccccc1CN1C(=O)c2ccccc2[C@](Cc2ccccc2I)(C(=O)O)[C@@H]1c1ccc(CO)cc1` was tested, and the relative growth was 1.17. In the case of `COC(=O)/C=C/C(C)=C/C=C/C(C)=C/C=C/C=C(C)/C=C/C=C(C)/C=C/C(=O)O`, the relative growth is reported as 0.985. `C=CCOC(=O)[C@H]1[C@@H]2C(=O)O[C@@H](c3ccccc3)[C@@H](c3ccccc3)N2[C@@H](c2ccc(OCCOC(=O)[C@@H]3C[C@@H]4C(=O)N[C@@H](CCCC[N+](C)(C)C)C(=O)N4[C@@H]3c3ccc(O)cc3)cc2)[C@]12C(=O)Nc1ccccc12` was tested, and the relative growth was 1.3. In the case of `CS(=O)(=O)N(CC(=O)O)Cc1ccccc1`, the relative growth is reported as 0.961. Molecule `C=CCNC(=O)[C@H]1[C@@H]2C(=O)O[C@@H](c3ccccc3)[C@@H](c3ccccc3)N2[C@@H](c2ccc(OCCO)cc2)[C@]12C(=O)N(C(=O)OCCOC)c1ccc(C#CC3(O)CCCCCC3)cc12` has a relative growth of 0.998. `Cc1cc(/C=N/O)[nH]c(=O)n1` showed a relative growth of 0.998. In the case of `COc1ccccc1-c1ccc2c(c1)O[C@H](CN(C)S(=O)(=O)c1ccccc1)[C@@H](C)CN([C@@H](C)CO)S2(=O)=O`, the relative growth is reported as 1. Work on `CN1C(=O)[C@H]2[C@H](C1=O)[C@H]1C=C(c3ccc(CO)cc3)[C@@H]2[C@H](c2cccs2)N1Cc1cccc(OC(F)(F)F)c1` yielded a relative growth of 0.91.
